Source: PubChem BioAssay AID652106 (National Center for Advancing Translational Sciences (NCATS), 2013)
This is a selection; strong and weak results do not stand in their true shares. Activity calls are given as the source filed them. The call rests on the fitted dose curve; in most records, active means well fitted activation curve with a large enough effect; inconclusive means small, poorly fitted or top-dose-only effect; inactive means no such curve, though single readings can be large or run the other way.

Test: qHTS of alpha-syn Inhibitors; further: % of control where 0% means no effect; nearly all actives have a fitted effect of over 65% in size
Details: Yeast expressing alpha-synuclein, BacTiter-Glo, 24 h; at 46.1 µM (top of the series)
Text: The goal of this project is to identify new chemical probes capable of reversing the toxicity associated with the Parkinson disease-related protein, alpha-synuclein. Compounds will be selected on their ability to restore growth in yeast cells expressing toxic levels of alpha-synuclein. These compounds will provide a complementary approach to deciphering the tangled mechanisms of toxicity and protection that we have uncovered through genome-wide genetic screens and are beginning to uncover in a large-scale proteomics analysis with mass spectroscopy. To this end, a miniaturized assay was developed to be screened against the Molecular Libraries Small Molecule Repository (MLSMR) to discover alpha-synuclein inhibitors. Please note that in the set-up this yeast-based assay compounds that inhibit as alpha-syn, have a read-out as activators. NIH Chemical Genomics Center [NCGC] NIH Molecular Libraries Probe Centers Network [MLPCN] MLPCN Grant: NS060957 Assay Submitter (PI): Susan Lindquist, Whitehead Institute/MIT
Dispense 2.5 microL yeast galactose medium per 1536-well plate, pin compound, dispense 2.5 microL alpha-synuclein expressing yeast in galactose medium at OD600=0.02 (pregrown in raffinose medium to mid-log phase) per well, incubate for 24 hr at 30 deg C, and cell growth will be measured using 5 microL of Bactiter/Glo reagent to entire plate and read using Luminescence Protocol in ViewLux.

SMILES	growth rescue (activation)
O=[N+]([O-])c1cc([N+](=O)[O-])c(Nc2nnnn2CCO)c([N+](=O)[O-])c1	inactive: -6.99%
CC1=C2N=C(C=C3N=C(C(C)=C4[N-][C@@](C)([C@@H]5N=C1[C@](C)(CCC(=O)NC[C@@H](C)OP(=O)([O-])O[C@H]1[C@@H](O)[C@@H](n6cnc7cc(C)c(C)cc76)O[C@@H]1CO)[C@H]5CC(N)=O)[C@@](C)(CC(N)=O)[C@@H]4CCC(N)=O)[C@@](C)(CC(N)=O)[C@@H]3CCC(N)=O)C(C)(C)[C@@H]2CCC(N)=O.[C-]#N.[Co+3]	inactive: -12.8%
COc1ccccc1OP(C)(=O)Nc1c(C)cccc1C (stereo not given)	inactive: -1.81%
CN1CCCCC1COC(=O)C1(O)c2ccccc2CCc2ccccc21 (stereo not given)	inactive: -1.55%
CP(=O)(Nc1ccc(SC(F)(F)F)cc1)Oc1ccccc1 (stereo not given)	inactive: 6.05%
CCCOc1ccc(NP(C)(=O)Oc2ccc(Cl)cc2)cc1 (stereo not given)	inactive: 4.78%
O=[N+]([O-])c1cc([N+](=O)[O-])c(-n2nnc3ccccc32)c([N+](=O)[O-])c1	inactive: 0.45%
CN(Cc1cccnc1)C(=O)COc1ccc(Cl)c(Cl)c1.O=[N+]([O-])c1cc([N+](=O)[O-])c(O)c([N+](=O)[O-])c1	inactive: 7.79%
O=[N+]([O-])c1cc([N+](=O)[O-])c(-c2cnn(-c3ccccc3)c2)c([N+](=O)[O-])c1	inactive: -25.3%
Cc1nc2ccc3ccccc3c2s1.O=[N+]([O-])c1cc([N+](=O)[O-])c(O)c([N+](=O)[O-])c1	inactive: -10.5%
COc1ccccc1OP(C)(=O)Nc1cccc(Br)c1 (stereo not given)	inactive: -10.6%
CCOC(=O)c1ccc(NP(C)(=O)Oc2cc(C)cc(C)c2)cc1 (stereo not given)	inactive: 0.73%
Cc1ccc(C)c(NP(C)(=O)Oc2ccccc2)c1 (stereo not given)	inactive: 9.86%
CP(=O)(Nc1cccc(Br)c1)Oc1ccccc1 (stereo not given)	inactive: 14.1%
Cc1cc(C)cc(OP(C)(=O)Nc2ccccn2)c1 (stereo not given)	inactive: -12.3%
CC1=NCCc2c1[nH]c1ccccc21.O=[N+]([O-])c1cc([N+](=O)[O-])c(O)c([N+](=O)[O-])c1	inactive: -6.81%
O=[N+]([O-])c1cc([N+](=O)[O-])c(Nc2cccnc2)c([N+](=O)[O-])c1	inactive: -16.1%
O=[N+]([O-])c1ccc2c(c1)C=Nc1ccccc1O2	inactive: 7.59%
Cc1cccc(C)c1OP(C)(N)=O (stereo not given)	inactive: -1.66%
CC(C)(C)c1ccc(OP(C)(=O)Nc2ccc(SC(F)(F)F)cc2)cc1 (stereo not given)	inactive: -14.2%
